Chains of the proteins cited; added tags and fusions are not shown.
UniProt P00352, whole entry: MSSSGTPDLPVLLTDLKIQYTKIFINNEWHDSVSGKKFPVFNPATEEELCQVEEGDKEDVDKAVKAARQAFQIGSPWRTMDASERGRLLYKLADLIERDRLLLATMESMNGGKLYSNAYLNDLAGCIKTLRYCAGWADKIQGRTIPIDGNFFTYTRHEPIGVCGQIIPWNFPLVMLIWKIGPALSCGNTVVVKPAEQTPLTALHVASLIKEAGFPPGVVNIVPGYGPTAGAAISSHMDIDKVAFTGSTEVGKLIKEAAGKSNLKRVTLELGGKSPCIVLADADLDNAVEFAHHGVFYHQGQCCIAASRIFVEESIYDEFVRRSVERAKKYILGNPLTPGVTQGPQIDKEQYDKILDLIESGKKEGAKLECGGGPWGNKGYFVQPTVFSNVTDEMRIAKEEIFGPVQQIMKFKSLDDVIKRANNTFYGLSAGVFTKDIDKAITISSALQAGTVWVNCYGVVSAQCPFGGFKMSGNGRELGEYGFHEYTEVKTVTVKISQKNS
UniProt P30838, whole entry: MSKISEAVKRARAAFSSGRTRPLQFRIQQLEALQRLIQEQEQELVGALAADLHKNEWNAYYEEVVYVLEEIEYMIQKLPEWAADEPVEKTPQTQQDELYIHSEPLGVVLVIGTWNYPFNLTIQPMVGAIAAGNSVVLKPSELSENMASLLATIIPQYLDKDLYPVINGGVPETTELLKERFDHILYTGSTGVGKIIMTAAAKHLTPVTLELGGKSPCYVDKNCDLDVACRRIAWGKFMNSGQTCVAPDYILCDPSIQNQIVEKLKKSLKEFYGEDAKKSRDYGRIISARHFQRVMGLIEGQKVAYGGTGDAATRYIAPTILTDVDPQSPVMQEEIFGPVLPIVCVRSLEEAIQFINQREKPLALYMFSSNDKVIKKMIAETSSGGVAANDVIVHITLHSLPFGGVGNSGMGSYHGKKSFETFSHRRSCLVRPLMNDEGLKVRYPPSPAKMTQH

In patent US12616678B2, “Methods to of aldehyde dehydrogenases for treatment of cancer” (THE PENN STATE RESEARCH FOUNDATION, priority 2020, dated 2026):

Experiments:
ALDH1A1 = ALDH1A1 (Homo sapiens, UniProt P00352); experiment: ALDH isoform-specific enzyme assay, ALDH1A1 (NADH absorbance); type: biochemical; settings: read-out: IC50s ALDH1A1
ALDH3A1 = ALDH3A1 (Homo sapiens, UniProt P30838); experiment: ALDH isoform-specific enzyme assay, ALDH3A1 (NADH absorbance); type: biochemical; settings: read-out: IC50s ALDH3A1

IC50 (ALDH1A1): 2.43 µM
IC50 (ALDH3A1): 2.72 µM
SMILES: CS(=O)(=O)Nc1ccc(-c2coc3cc(OCc4cccc(C(=O)O)c4)ccc3c2=O)cc1
